These are literature values, as cited in patent publication US20090069276A1, “Treatment, prevention and amelioration of pulmonary disorders associated with chemotherapy or radiotherapy with active vitamin D compounds or mimics thereof” (Novacea, Inc., priority 2005, published 2009).

The test system of this series is cancer patients. Conditions: Non-Hodgkin's lymphoma, Hochster 2000, cited from earlier work.

On to cyclophosphamide, fludarabine, for which the “Patients discontinuing treatment because of pulmonary toxicity” value (3 of 27 patients) is on record as 11%. In addition, the “Patients who developed grade III or IV pulmonary toxicity” value (cyclophosphamide 600, 750 or 1000 mg/m^2, fludarabine 20 mg/m^2/d) is 18%.
